# Literature values in US11857566B2, “Sulfonated polystyrene derivative for use in the treatment and/or prophylaxis of cat flu” (UNIWERSYTET JAGIELLONSKI, priority 2018, dated 2024).
smiles,measurement,value
NC(=O)c1ncn([C@@H]2O[C@H](CO)[C@@H](O)[C@H]2O)n1 [ribavirin],toxicity after oral administration in cats,too toxic
